The target in one assay is α4β2*-nAChR (Mus musculus, UniProt O70174+Q9ERK7). The assay is described as follows: α-CtxMII-resistant [3H]-dopamine release from striatal synaptosomes. Format: biochemical.
A further assay concerns the target α7-nAChR (Mus musculus, UniProt P49582). The settings on record: read-out: IC50 inhibition of binding to α7-nAChR; membranes from HP.

The chains behind the UniProt entries cited, without tags or fusion partners. Residues count along the entry.
UniProt O70174, 31-629: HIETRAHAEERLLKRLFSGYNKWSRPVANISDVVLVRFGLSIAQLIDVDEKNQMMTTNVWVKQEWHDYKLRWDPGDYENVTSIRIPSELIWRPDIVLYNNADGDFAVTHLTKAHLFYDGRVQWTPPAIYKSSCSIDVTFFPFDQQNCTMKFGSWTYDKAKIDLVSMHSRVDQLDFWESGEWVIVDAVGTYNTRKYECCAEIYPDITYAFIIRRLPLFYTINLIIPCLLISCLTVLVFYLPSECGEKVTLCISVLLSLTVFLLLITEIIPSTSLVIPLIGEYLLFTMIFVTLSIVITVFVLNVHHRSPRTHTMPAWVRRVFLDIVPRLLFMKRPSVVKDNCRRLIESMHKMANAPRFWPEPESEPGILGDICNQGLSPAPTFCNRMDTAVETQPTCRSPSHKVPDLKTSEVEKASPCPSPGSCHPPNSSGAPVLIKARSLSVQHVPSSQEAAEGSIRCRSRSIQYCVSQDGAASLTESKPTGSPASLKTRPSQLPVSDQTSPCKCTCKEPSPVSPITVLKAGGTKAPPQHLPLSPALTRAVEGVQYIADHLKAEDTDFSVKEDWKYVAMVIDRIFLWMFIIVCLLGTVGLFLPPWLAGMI
UniProt Q9ERK7, 26-501: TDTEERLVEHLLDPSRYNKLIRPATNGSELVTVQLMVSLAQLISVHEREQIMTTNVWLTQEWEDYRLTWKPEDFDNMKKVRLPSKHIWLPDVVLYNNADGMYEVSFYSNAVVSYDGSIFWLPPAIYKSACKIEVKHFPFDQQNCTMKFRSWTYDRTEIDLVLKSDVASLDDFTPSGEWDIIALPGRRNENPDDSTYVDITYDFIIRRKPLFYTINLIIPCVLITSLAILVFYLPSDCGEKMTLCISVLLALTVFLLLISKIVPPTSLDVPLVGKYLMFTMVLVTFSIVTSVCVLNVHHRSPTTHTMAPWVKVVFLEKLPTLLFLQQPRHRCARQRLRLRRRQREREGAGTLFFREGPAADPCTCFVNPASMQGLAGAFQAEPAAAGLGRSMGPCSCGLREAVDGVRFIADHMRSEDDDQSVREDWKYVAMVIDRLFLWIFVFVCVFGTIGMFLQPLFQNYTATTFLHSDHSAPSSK
UniProt P49582, 23-502: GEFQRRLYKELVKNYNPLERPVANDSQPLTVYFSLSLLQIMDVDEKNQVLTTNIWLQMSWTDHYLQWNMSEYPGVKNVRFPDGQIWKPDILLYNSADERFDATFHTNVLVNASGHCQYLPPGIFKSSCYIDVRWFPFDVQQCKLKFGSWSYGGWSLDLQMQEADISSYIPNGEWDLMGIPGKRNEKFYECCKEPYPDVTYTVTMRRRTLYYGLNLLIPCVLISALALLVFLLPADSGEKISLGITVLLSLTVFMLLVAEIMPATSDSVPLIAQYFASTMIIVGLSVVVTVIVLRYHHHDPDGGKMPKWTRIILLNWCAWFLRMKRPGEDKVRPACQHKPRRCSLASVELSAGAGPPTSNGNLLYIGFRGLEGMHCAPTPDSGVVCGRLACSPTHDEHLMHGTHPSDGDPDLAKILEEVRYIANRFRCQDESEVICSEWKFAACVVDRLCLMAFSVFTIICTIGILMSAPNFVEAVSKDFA

Data on one compound can be found in PMC2849849 (Neuropharmacology, 2010).

The structures appear in SMILES notation. Values joined by “and” are separate entries in the source; they are usually repeats but may differ in a detail not shown here. Identical values can stand only once.

As for `c1cncc(C2CC3CCN2CC3)c1` (racemic) [Compound 1, (±)-2-(-3-pyridinyl)-1-azabicyclo[2.2.2]octane], on α4β2*-nAChR, the “Efficacy at α4β2* compared to nicotine” value worked out at 30%; the “Efficacy α4β2* (first number, [3H]DA release)” value was 28% and 28 ± 2 % 31 ± 4%. Further, on α7-nAChR, the IC50 came out at 30.8 ± 8.39 nM.
